# Laboratory results reported in patent publication US20260062443A1 (ALEXION PHARMACEUTICALS, INC., priority 2022, published 2026).
# The chains behind the UniProt entries cited, without tags or fusion partners. Residues count along the entry.
# UniProt P09871, 438-688 limits assumed: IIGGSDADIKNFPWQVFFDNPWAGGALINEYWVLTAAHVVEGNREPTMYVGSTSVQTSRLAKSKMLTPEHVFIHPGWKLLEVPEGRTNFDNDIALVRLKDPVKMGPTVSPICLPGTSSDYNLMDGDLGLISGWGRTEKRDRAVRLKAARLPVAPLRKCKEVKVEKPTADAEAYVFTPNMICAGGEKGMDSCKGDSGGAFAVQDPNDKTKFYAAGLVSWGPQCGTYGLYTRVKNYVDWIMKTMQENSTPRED
# UniProt P09871, 16-437 partner limits assumed: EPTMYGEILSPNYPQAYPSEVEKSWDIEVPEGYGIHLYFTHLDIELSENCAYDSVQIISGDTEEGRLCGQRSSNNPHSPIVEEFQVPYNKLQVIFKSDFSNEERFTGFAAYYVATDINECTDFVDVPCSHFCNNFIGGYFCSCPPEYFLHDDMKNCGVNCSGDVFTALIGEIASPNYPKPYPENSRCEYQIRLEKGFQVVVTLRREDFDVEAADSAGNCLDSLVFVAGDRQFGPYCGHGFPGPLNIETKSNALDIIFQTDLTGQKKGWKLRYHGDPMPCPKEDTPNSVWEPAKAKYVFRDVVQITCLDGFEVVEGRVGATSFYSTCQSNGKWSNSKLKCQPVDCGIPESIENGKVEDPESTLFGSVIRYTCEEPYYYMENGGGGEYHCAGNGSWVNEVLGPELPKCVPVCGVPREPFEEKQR
# Target: Human complement C1s enzyme (Homo sapiens, UniProt P09871)
# Experiment: Human C1s enzyme assay
# Assay type: biochemical
# Details: read-out: IC50 (Stars), C1s Inhibiting Activity; human complement C1s enzyme 1.16 nM, substrate Z-L-Lys-SBzl 100 μM, 5 min preincubation
# Procedure: Other standard complement assays are also available.
# Human complement C1s enzyme (purified from human serum, Complement Technology, Inc.) at 1.16 nM final concentration was incubated with test compound at various concentrations for 5 min at room temperature in 50 mM Tris, 1 M NaCl, pH 7.5. A synthetic substrate Z-L-Lys-SBzl and DTNB (Ellman's reagent) were added to final concentrations of 100 μM each. Absorbance at 405 nm (A405) was recorded at 30 second intervals for 30 min using a microplate spectrophotometer. IC50 values were calculated by nonlinear regression of complement C1 s reaction rates as a function of test compound concentration.
# ND indicates a compound for which the IC50 value is not determined.
row,IC50 [nM],SMILES
1,< 100,Cc1ccc(Oc2cc(F)cc(C(=O)NCC(=O)N3C[C@H](OC(F)F)C[C@H]3C(=O)NCc3cc4cnccc4[nH]3)c2)c(F)c1
2,< 100,C[C@@H](NC(=O)[C@@H]1CC(CN2CCCCC2)CN1C(=O)CNC(=O)c1ccc2c(c1)Oc1ccccc1S2)c1cc2cnccc2[nH]1 (some centres unmarked)
3,< 100,COc1ccc(Oc2ccc(C)cc2F)cc1C(=O)NCC(=O)N1C[C@H](OC(F)F)C[C@H]1C(=O)NCc1cc2cnccc2[nH]1
4,< 100,C[C@@H](NC(=O)[C@@H]1C[C@@H](Oc2ccccc2)CN1C(=O)CNC(=O)c1ccc2c(c1)Oc1ccccc1S2)c1cc2cnccc2[nH]1
5,< 100,C[C@@H](NC(=O)[C@@H]1C[C@H](Cn2ccnn2)CN1C(=O)CNC(=O)c1ccc2c(c1)Oc1ccccc1S2)c1cc2cnccc2[nH]1
6,< 100,C[C@@H](NC(=O)[C@@H]1C[C@@H](Cn2ccnn2)CN1C(=O)CNC(=O)c1ccc2c(c1)Oc1ccccc1S2)c1cc2cnccc2[nH]1 (relative stereo)

row,SMILES,IC50 [nM]
1,O=C(NCC(=O)N1C[C@H](OC(F)F)C[C@H]1C(=O)NCc1cnc2cc[nH]c2c1)c1ccc2c(c1)Oc1ccccc1S2,> 1000
2,O=C(NCC(=O)N1C[C@H](OC(F)F)C[C@H]1C(=O)NCc1cc2cnccc2[nH]1)c1cnc2c(c1)Oc1ccccc1S2,< 100
